In this assay the target is Caspase-7 (Homo sapiens) (UniProt P55210). Kind of assay: Confirmation Concentration-Response Assay for Allosteric/Competitive Inhibitors of Caspase-7. Conditions: recombinant caspase-7, fluorogenic substrate cleavage; at 57.5 µM (top of the series). An excerpt:
NIH Molecular Libraries Screening Centers Network [MLSCN]
NIH Chemical Genomics Center [NCGC]
PI Name: Dr. James Wells,
Dr. Enrique Perez-Paya, Dr.Janice Williams, Dr. Dennis Wolan, a person
The caspases (Cysteine Aspartyl Protease) comprise a related family of 14 dimeric proteases that are critical mediators of apoptosis (programmed cell death) and inflammation. The caspases represent an important class of drug targets for stroke, ischemia, cancer and inflammatory diseases. […] One goal of this project was to identify compounds that act as allosteric inhibitors via stabilizing the procaspase form of the enzyme. […]
The biochemical assay was configured using purified caspase 7 at a high enzyme concentration to promote formation of the homodimers and thus facilitate the identification of allosteric inhibitors. […] After initiation of the assay with substrate the plates were rapidly read using an automated robotic system (Kalypsys, Inc.) to maintain consistent timing. […]
Caspase 7 was prepared in buffer (50 mM HEPES pH 7.5, 50 mM KCl, 200 mM NaCl, 10 mM DTT, 0.1% CHAPS) at a concentration of 66.6 nM and 3 uL was dispensed to all wells using black solid Kalypsys 1536-well plates. […] The plates were then exposed using 405 nm excitation/520 nm emission filters for 4 sec and read at 20 sec intervals for 3 min. […]

The chains behind the UniProt entries cited, without tags or fusion partners. Residues count along the entry.
UniProt P55210, 24-198 limits assumed: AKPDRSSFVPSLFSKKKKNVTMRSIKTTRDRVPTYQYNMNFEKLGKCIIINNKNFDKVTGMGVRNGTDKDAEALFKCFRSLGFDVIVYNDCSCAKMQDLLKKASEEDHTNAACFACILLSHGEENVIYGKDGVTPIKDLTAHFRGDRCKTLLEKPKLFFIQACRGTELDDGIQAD
UniProt P55210, 207-303 limits assumed: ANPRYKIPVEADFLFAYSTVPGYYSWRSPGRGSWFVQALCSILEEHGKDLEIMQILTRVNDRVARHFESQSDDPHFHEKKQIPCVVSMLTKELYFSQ

The entries are a selection whose mix differs from that of the whole data set. Results filed as inconclusive are left out. Active and inactive are the calls of the source. Calls come from the whole dose curve; as a rule, active = well fitted inhibition curve with a large enough effect in the main read-out, with a control signal flat (not every such curve was filed as active); inconclusive = small, poorly fitted or top-dose-only effect, or a change in a side signal; inactive = no such curve, though single readings can be large or run the other way.

For the compound `C/C1=C2N=C(/C=C3N=C(/C(C)=C4\[N-][C@@](C)([C@H]5N=C1[C@@](C)(CCC(=O)NC[C@H](C)OP(=O)([O-])O[C@@H]1[C@H](O)[C@H](n6cnc7cc(C)c(C)cc76)O[C@@H]1CO)[C@@H]5CC(N)=O)[C@](C)(CC(N)=O)[C@H]4CCC(N)=O)[C@@](C)(CC(N)=O)[C@@H]\3CCC(N)=O)C(C)(C)[C@@H]/2CCC(N)=O.[C-]#N.[Co+3]`, the activity change, negative = inhibition is inactive: -82.7%.

Source of the values: PubChem BioAssay AID897 (National Center for Advancing Translational Sciences (NCATS), 2007).
